# Properties, as collected for the OPERA models

Melting points are in °C. The boiling point refers to atmospheric pressure (760 mmHg), by the definition of the set. The octanol-water partition coefficient is given as log10; larger values mean a more lipophilic compound. Solubility in water is on a log10 molar scale (set defined at 25 °C). Vapor pressures (log10 mmHg) refer to near room temperature, 15 to 30 °C; higher is more volatile. Henry's law constant (air-water partitioning) is log10 of atm·m3/mol, nominally at 25 °C. fu is the fraction unbound in human plasma, from 0 to 1. Intrinsic clearance (human, µL/min per 10^6 hepatocytes): higher is faster turnover, and 0 stands for none detected. "n/a" marks a cell with nothing listed here.

compound	name	melting point (°C)	BP (°C)	log Kow	log solubility (log10 mol/L)	vapor pressure (log10 mmHg)	Henry's law constant (log10 atm·m3/mol)	fraction unbound	hepatic Clint (µL/min/10^6 cells)
O=C(c1ccccc1Cl)C1CCCC1	2-Chlorophenyl cyclopentyl ketone	n/a	n/a	3.7	-4.018	-2.844	n/a	n/a	n/a
C=CCOCC(O)CO (stereo unspecified)	Glycerol 1-allylether	n/a	245	0.286	n/a	n/a	n/a	n/a	n/a
O=C1CCCCCN1C(=O)Nc1ccc(Cc2ccc(NC(=O)N3CCCCCC3=O)cc2)cc1	n/a	177	n/a	5	-7.763	-5.468	n/a	n/a	n/a
Clc1ccc2ncoc2c1	6-Chlorobenzo[d]oxazole	61.3	n/a	2.2	-2.323	-0.824	n/a	n/a	n/a
CO[Si](CCCNC(=O)OCCCCCCOC(=O)NCCC[Si](OC)(OC)OC)(OC)OC	n/a	2.5	n/a	5.1	n/a	-4.907	n/a	n/a	n/a
CC(C)CCl	Propane, 1-chloro-2-methyl-	n/a	n/a	n/a	-2	2.176	n/a	n/a	n/a
O=C1CC[C@H]2CO[C@@H]1O2	(1S,5R)-6,8-Dioxabicyclo[3.2.1]octan-4-one	n/a	226.9	n/a	n/a	-0.678	n/a	n/a	n/a
CO[C@@]1(NC(=O)Cc2cccs2)C(=O)N2C(C(=O)O)=C(COC(N)=O)CS[C@@H]21	Cefoxitin	n/a	n/a	n/a	-3.341	n/a	n/a	0.6175	n/a
C[C@@H](NCCc1ccc(O)cc1)[C@@H](O)c1ccc(O)cc1	Ritodrine	89	n/a	2.4	-3.206	n/a	n/a	n/a	n/a
CC(=O)OCC(C)(C)C=NCC1(C)CC(N=CC(C)(C)COC(C)=O)CC(C)(C)C1 (stereo unspecified)	n/a	n/a	n/a	1.175	n/a	-6.246	n/a	n/a	n/a
CC(=O)OCC(=O)[C@@]12OC3(CCCC3)O[C@@H]1C[C@H]1[C@@H]3CCC4=CC(=O)C=C[C@]4(C)[C@@]3(F)[C@@H](O)C[C@@]12C	Amcinonide	n/a	n/a	2.3	-4.812	n/a	n/a	n/a	n/a
CCOC(OCC)[SiH2]CN1CCOCC1	4-{[(Diethoxymethyl)silyl]methyl}morpholine	-100.2	232.7	n/a	n/a	-0.648	n/a	n/a	n/a
FC(F)(F)C(F)(F)C(F)(F)C(F)(C(F)(F)F)C(F)(F)F	Perfluoroisohexane	n/a	n/a	3.74	n/a	2.337	n/a	n/a	n/a
OCc1cccc(Oc2ccccc2)c1	3-Phenoxybenzenemethanol	n/a	n/a	2.797	-2.742	n/a	n/a	n/a	n/a
CC(C)c1ccc2oc3nc(N)c(C(=O)O)cc3c(=O)c2c1	Amlenanox	n/a	n/a	4.1	-3.31	n/a	n/a	n/a	n/a
Cc1cn[nH]c1	4-Methylpyrazole	n/a	n/a	0.9	0.833	-1.17	n/a	n/a	n/a
CC1CC(CC2CC(C)C(N)C(C)C2)CC(C)C1N (stereo unspecified)	4,4'-Methylenebis(2,6-dimethylcyclohexan-1-amine)	n/a	353.7	3.05	-2.633	-4.763	-8.01	n/a	n/a
CN(C)CCc1c[nH]c2ccc(C[C@H]3COC(=O)N3)cc12	Zolmitriptan	n/a	n/a	1.6	-3.18	n/a	n/a	n/a	n/a
C=COCCOC	1-Methoxy-2-vinyloxyethane	-83	n/a	n/a	-0.065	1.255	n/a	n/a	n/a
CCCCOc1ccc(B(O)O)c(F)c1F	(4-Butoxy-2,3-difluorophenyl)boronic acid	128.5	n/a	3.2	-3.714	-4.954	n/a	n/a	n/a
CN(CCO)c1nc(Nc2ccccc2)nc(Nc2ccc(/C=C/c3ccc(Nc4nc(Nc5ccccc5)nc(N(C)CCO)n4)cc3S(=O)(=O)[O-])c(S(=O)(=O)[O-])c2)n1.[Na+].[Na+]	Disodium 4,4'-bis-(2-sulfostyryl)biphenyl	n/a	n/a	1.2	-3.069	n/a	n/a	n/a	n/a
Cc1nn(-c2cccc(Cl)c2)c(=O)[c-]1/N=N/c1cc(S(N)(=O)=O)ccc1[O-].Cc1nn(-c2cccc(Cl)c2)c(=O)[c-]1/N=N/c1cc(S(N)(=O)=O)ccc1[O-].[Co+3].[Na+]	n/a	n/a	n/a	3.117	-2.576	n/a	n/a	n/a	n/a
CS(=O)(=O)c1ccc(C(=O)C2C(=O)CCCC2=O)c(Cl)c1COCC1CCCO1 (stereo unspecified)	Tefuryltrione	115	n/a	n/a	-3.621	-11.58	n/a	n/a	n/a
CC(C)=CCCC(C)CCOC=O (stereo unspecified)	Citronellyl formate	n/a	n/a	3.9	-4.056	-1.523	n/a	n/a	n/a
CC(C)COCC(CN(Cc1ccccc1)c1ccccc1)N1CCCC1 (stereo unspecified)	Bepridil	n/a	n/a	5.2	-4.748	n/a	n/a	n/a	2
Cc1cc(CCC(=O)OCCOCCOCCOC(=O)CCc2cc(C)c(O)c(C(C)(C)C)c2)cc(C(C)(C)C)c1O	n/a	78.4	n/a	4.7	-6.26	n/a	n/a	n/a	n/a
NC1=NS(=O)(=O)c2ccccc21	1,2-Benzisothiazol-3-amine 1,1-dioxide	280	n/a	n/a	-2.454	n/a	n/a	n/a	n/a
CC1(C)c2ccccc2-c2ccc(N(c3ccc4c(c3)C3(c5ccccc5-c5ccccc53)c3ccccc3-4)c3ccccc3-c3ccccc3)cc21	n/a	255.8	n/a	n/a	-8.131	n/a	n/a	n/a	n/a
C=CC(F)(F)C(F)(F)F	3,3,4,4,4-Pentafluorobut-1-ene	n/a	n/a	3.06	-3.488	n/a	n/a	n/a	n/a
CCCCC(CC)CNC(=O)c1ccc(N=Nc2c(C)c(C#N)c(=O)n(C)c2O)cc1 (stereo unspecified)	n/a	182.3	n/a	4.7	-7.025	n/a	n/a	n/a	n/a
CC(O)CC(C)CCc1ccccc1 (stereo unspecified)	4-Methyl-6-phenylhexan-2-ol	n/a	275.9	3.37	-2.803	-2.9	n/a	n/a	n/a
N=C(N)SCCC(=O)O	Propanoic acid, 3-((aminoiminomethyl)thio)-	160	n/a	-2.42	n/a	n/a	n/a	n/a	n/a
C1CCCCCC2=C(CCCC1)CCCO2	n/a	-9	n/a	5.07	n/a	-3.308	n/a	n/a	n/a
CC(=O)NCC(=O)NCCC(=O)O	N-Acetylglycyl-beta-alanine	167	n/a	-1.72	n/a	-4.617	n/a	n/a	n/a
O=C(c1ccc(O)cc1)c1ccc(Cl)cc1	4-Hydroxy-4'-chlorobenzophenone	n/a	n/a	n/a	-2.834	-5.686	n/a	n/a	n/a

The last 2 entries again:

| compound | name | melting point (°C) | BP (°C) | log Kow | log solubility (log10 mol/L) | vapor pressure (log10 mmHg) | Henry's law constant (log10 atm·m3/mol) | fraction unbound | hepatic Clint (µL/min/10^6 cells) |
|---|---|---|---|---|---|---|---|---|---|
| CC(=O)NCC(=O)NCCC(=O)O | N-Acetylglycyl-beta-alanine | 167 | n/a | -1.72 | n/a | -4.617 | n/a | n/a | n/a |
| O=C(c1ccc(O)cc1)c1ccc(Cl)cc1 | 4-Hydroxy-4'-chlorobenzophenone | n/a | n/a | n/a | -2.834 | -5.686 | n/a | n/a | n/a |

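These are experimental values that the OPERA curators gathered from public databases to train and test their QSAR models. A listed value is a point estimate from one report or more. Conditions of the individual experiments are not part of the data. The measured form (salt, isomer or mixture) is not always the one drawn. Some entries may be limits or estimates that an upstream database listed as plain numbers.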

Data: OPERA 2.9 data sets, kmansouri/OPERA on GitHub.